# According to PubChem BioAssay AID485350 (ICCB-Longwood Screening Facility, Harvard Medical School, 2010):
# The entries are a selection whose mix differs from that of the whole data set. Some tests of the compounds listed are not included; inactive here does not mean inactive elsewhere. Calls of active or inactive are those of the source. No stated cut-off is given here; in the data, active means inhibition above about 25% (passing the limit was not always enough); inactive means the rest.
# System: BasE (2,3-dihydroxybenzoate-AMP ligase), Acinetobacter baumannii ATCC 17978
# Assay: inhibitors of A. baumannii BasE – biochemical, Acinetobacter baumannii ATCC 17978, fluorescence polarization, primary screen (AID 485350);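 further: 0% = negative plate control signal and 100% = positive plate control signal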
# Conditions: purified BasE, fluorescence polarization binding displacement; active compounds read high; concentration not given here
row,Compound,inhibition
1,CN1C2CCC1CC(OC(=O)C(O)(c1ccccc1)c1ccccc1)C2 (configuration not stated),inactive: 1.22%
2,O=C(NCC1(N2CCCCC2)CCCCC1)c1ccc2c(c1)OCCO2,inactive: -0.46%
3,CN(C)C1(CNC(=O)c2ccncc2)CCCCC1,inactive: -0.33%
4,N#CC(C#N)=Cc1ccccc1,inactive: 3.61%
5,COc1ccc(OC)c(C=C(C#N)C#N)c1,inactive: 3.19%
6,CN(C)c1ccc(C(=O)NCC2(N(C)C)CCCCC2)cc1,inactive: -0.93%
7,O=C(NCC1(N2CCOCC2)CCCCC1)c1cnc(Cl)c(Cl)c1,inactive: 1.41%
